Earlier results as cited in patent US9173884B2, “Inhibitors of phosphodiesterase 11 (PDE11)” (TRUSTEES OF BOSTON COLLEGE, priority 2011, dated 2015).

Biological target: PDE11 (Homo sapiens (Human), UniProt Q9HCR9)
Settings: reference 22; cited from earlier work

CN1CC(=O)N2[C@H](c3ccc4c(c3)OCO4)c3[nH]c4ccccc4c3C[C@@H]2C1=O [Tadalafil]
activity against PDE11: significant activity
